According to paper PMC6784148 (Toxins, 2019):

Assay: in vitro
Conditions: pig

Compound: CC1=C[C@H]2O[C@@H]3[C@H](O)C[C@](C)([C@@]2(CO)[C@H](O)C1=O)[C@]31CO1 [Deoxynivalenol, reference compound]
- viability at 1.25 µM: 78.8%
